{
  "source": "patent US20240181093A1",
  "about": "(ADENOBIO N.V, priority 2012, published 2024)",
  "origin": "cited, not measured here",
  "system": "myocardium",
  "conditions": "cited from earlier work",
  "data": [
    {"substance": "boronic acid teboroxime [Tc99m-BATO]", "values": [
      {"measurement": "time of peak hepatic uptake following injection", "setting": "excretion is enterohepatic", "value": "about 6 min"},
      {"measurement": "myocardial uptake, time", "setting": "in vivo", "value": "after only one minute"},
      {"measurement": "time after which washed-out from the myocardium", "setting": "in vivo", "value": 3, "unit": "min"}
    ]}
  ]
}
